Experimental data reported in publication PMC8762078, “An ALS-associated variant of the autophagy receptor SQSTM1/p62 reprograms binding selectivity toward the autophagy-related hATG8 proteins” (The Journal of Biological Chemistry, 2021).

Target: p62 WT-AIM peptide (human)
Assay: native MS; ESI-MS competition binding under nondenaturing conditions: each hATG8 titrated into an equimolar mixture of WT-AIM and L341V-AIM peptides (each 10 μM); read-out is the ratio of peak intensities of unbound WT and L341V peptides; ratios given for 20 μM hATG8; two independent experiments

## LC3B (microtubule-associated protein 1A/1B light chain 3B) (from UniProt Q9GZQ8 1-120) (natural protein)
  ratio of unbound WT:L341V AIM peptides at 20 μM hATG8 (reference: L341V-AIM): 0.6
